Values quoted from earlier work in paper PMC6430500, “3-Fluoro-4-hydroxyprolines: Synthesis, Conformational Analysis, and Stereoselective Recognition by the VHL E3 Ubiquitin Ligase for Targeted Protein Degradation” (Journal of the American Chemical Society, 2018).

Protein sequences, listed by entry. Tags and fused reporters are not part of them. Residues count along the entry.
UniProt P40337, 54-213: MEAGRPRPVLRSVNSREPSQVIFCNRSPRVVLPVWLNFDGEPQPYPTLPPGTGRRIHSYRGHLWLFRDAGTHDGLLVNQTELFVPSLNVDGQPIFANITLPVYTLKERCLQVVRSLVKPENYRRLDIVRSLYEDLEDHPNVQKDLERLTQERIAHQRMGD

Biological target: VBC and Brd4BD2 (Homo sapiens, UniProt O60885+P40337)
Settings: values previously measured; cited from earlier work

SMILES: Cc1ncsc1-c1ccc(CNC(=O)[C@@H]2C[C@@H](O)CN2C(=O)[C@@H](NC(=O)COCCOCCOCCNC(=O)C[C@@H]2N=C(c3ccc(Cl)cc3)c3c(sc(C)c3C)-n3c(C)nnc32)C(C)(C)C)cc1 [MZ1, reference compound]
- α (cooperativity): 9.5–17.6
